{"source": "patent US6310072A", "about": "(priority 1995, dated 2001)", "origin": "cited, not measured here", "tested_on": "μ-opioid receptor", "conditions": "[3H]-DAMGO; compared with morphine; cited from earlier work", "data": [{"compound": "COc1ccc2c3c1O[C@H]1C(=O)CC[C@@]4(O)[C@@H](C2)N(C)CC[C@]314", "note": "[oxycodone]", "values": [{"measurement": "Affinity for the μ-opioid receptor", "result": "low compared with that of morphine"}]}]}
